Assay results: ChEMBL document CHEMBL3085743, “6-(1-Benzyl-1H-pyrrol-2-yl)-2,4-dioxo-5-hexenoic acids as dual inhibitors of recombinant HIV-1 integrase and ribonuclease H, synthesized by a parallel synthesis approach” (J Med Chem, 2013)

Molecular target: Human immunodeficiency virus type 1 integrase (Human immunodeficiency virus 1, UniProt Q7ZJM1)

Row | Structure (SMILES) | IC50 [µM]
1 | CCOC(=O)C(=O)CC(=O)/C=C/c1cccn1Cc1ccc(C)cc1 | > 111
2 | CCOC(=O)C(=O)CC(=O)/C=C/c1cccn1Cc1ccc(Cl)cc1 | 42
3 | COc1ccc(Cn2cccc2/C=C/C(=O)CC(=O)C(=O)O)cc1 | 4.1
4 | CCOC(=O)C(=O)CC(=O)/C=C/c1cccn1Cc1ccccc1 | 15
5 | O=C(/C=C/c1cccn1Cc1ccccc1)CC(=O)C(=O)O | 0.09
6 | Cc1ccc(Cn2cccc2/C=C/C(=O)CC(=O)C(=O)O)cc1 | 1.2
7 | CCOC(=O)C(=O)CC(=O)/C=C/c1cccn1Cc1ccc(OC)cc1 | 110
